Measured values published in ChEMBL document CHEMBL2434956, “Investigating the selectivity of metalloenzyme inhibitors” (J Med Chem, 2013).

Chains of the proteins cited; added tags and fusions are not shown.
UniProt P02787, whole entry, looked up: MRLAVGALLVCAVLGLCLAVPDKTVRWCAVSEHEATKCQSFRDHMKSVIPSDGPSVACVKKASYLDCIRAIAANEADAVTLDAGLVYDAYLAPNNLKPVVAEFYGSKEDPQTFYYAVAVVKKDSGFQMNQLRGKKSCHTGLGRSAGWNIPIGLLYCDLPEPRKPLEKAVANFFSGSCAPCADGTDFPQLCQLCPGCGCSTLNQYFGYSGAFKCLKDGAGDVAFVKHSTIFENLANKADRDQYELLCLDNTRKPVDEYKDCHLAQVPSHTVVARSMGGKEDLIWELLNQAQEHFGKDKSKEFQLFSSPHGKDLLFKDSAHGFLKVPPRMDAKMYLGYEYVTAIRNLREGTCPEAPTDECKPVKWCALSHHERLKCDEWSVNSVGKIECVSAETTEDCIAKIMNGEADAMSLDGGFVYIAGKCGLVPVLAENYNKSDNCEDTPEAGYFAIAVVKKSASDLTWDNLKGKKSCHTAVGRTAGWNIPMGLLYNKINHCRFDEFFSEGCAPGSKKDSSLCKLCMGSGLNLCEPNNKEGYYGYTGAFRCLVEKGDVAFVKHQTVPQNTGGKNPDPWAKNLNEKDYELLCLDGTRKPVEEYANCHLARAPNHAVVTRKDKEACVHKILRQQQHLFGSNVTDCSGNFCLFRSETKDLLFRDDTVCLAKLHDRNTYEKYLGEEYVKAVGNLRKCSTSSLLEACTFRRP

Molecular target: Serotransferrin (Homo sapiens) (UniProt P02787)
Experiment: Binding affinity to human holo-transferrin assessed as pseudo-first-order rate constant measured as removal of ferric ion at 1 mM measured for 1 hr by UV-vis spectrophotometric analysis
Type: single protein

Molecule `O=C(/C=C/c1ccc(Cl)cc1Cl)NO` has a K of 0 ×10² /min.
